Where two headings read alike, the source gives them in different places. Marks after values point to notes of the source that are not given here.

The text below walks through data of patent publication US20190200664A1, “WATER AND FAT SOLUBLE MICRONUTIENT STABILIZED PARTICLES” (Massachusetts Institute of Technology, priority 2018, published 2019).

For data set [1] the following is noted: uncooked, maize porridge meal, 4 mg Fe, young women n=20, geometric mean.
Data set [2] in a line: Human study 2: iron absorption from stable-isotope labeled wheat bread test meals. The following applies: wheat bread baked at 190° C. for 20 minutes, 4 mg Fe, young women n=24; geometric mean (95% CI).

Take ferrous sulfate [Non-Encapsulated Fe]: the “Fractional Fe Absorption” value was 3.36 (1.48, 7.64)^a % in data set [1] and 3.36% in data set [1] (listed as free uncooked iron). Moreover, in data set [2], the “fractional iron absorption (FIA)” value is 19.2 (15.3, 24.29) %.
